This passage reports Ki results from ChEMBL document CHEMBL1134012, “Synthesis of thiophene-2-carboxamidines containing 2-aminothiazoles and their biological evaluation as urokinase inhibitors” (Bioorg Med Chem Lett, 2001).

SMILES strings stand for the structures. pKi: −log10 of the molar value.

The experiment has as its target Urokinase-type plasminogen activator (Homo sapiens, UniProt P00749). Description: In vitro inhibitory activity against Urokinase-type plasminogen activator (microPa).

In general, pKi refers to the Ki on a negative log10 scale, so that one unit is a factor of ten. A high value points to a small Ki. Molecule `COc1ccc(N2CCN(c3nc(-c4cc(C(=N)N)sc4SC)cs3)CC2)cc1` gave a pKi of 6.32.
